Patent US20260022097A1 (priority 2022, published 2026)

Target: mu-opioid receptor (MOR) (Homo sapiens, UniProt P35372)
Test: inhibition of forskolin-induced cAMP accumulation assay, MOR antagonist mode versus fentanyl

Compound	MOR antagonist (result in words)	MOR antagonist potency relative to naltrexone
C/C=C\[C@H]1[C@@H]2CCC[C@@]1(c1cccc(O)c1)CCN2CCc1ccccc1	potent MOR antagonist	
CC/C=C\[C@H]1[C@@H]2CCC[C@@]1(c1cccc(O)c1)CCN2CCc1ccccc1	potent MOR antagonist	
C=C[C@H]1[C@@H]2CCC[C@@]1(c1cccc(O)c1)CCN2CCc1ccccc1 [Compound 19, 3-((1S,5R,9R)-2-Phenethyl-9-vinyl-2-azabicyclo[3.3.1]nonan-5-yl) phenol]	potent MOR antagonist	about twice as potent as naltrexone
